Reference: US8981092B2, “Substituted 3,4-dihydro-2H-pyrrolo[1,2-a]pyrazin-1-ones as modulators of protein kinase activity” (Nerviano Medical Sciences S.r.l., priority 2008, dated 2015)

Protein sequences, listed by entry. Tags and fused reporters are not part of them.
UniProt P11309, whole entry: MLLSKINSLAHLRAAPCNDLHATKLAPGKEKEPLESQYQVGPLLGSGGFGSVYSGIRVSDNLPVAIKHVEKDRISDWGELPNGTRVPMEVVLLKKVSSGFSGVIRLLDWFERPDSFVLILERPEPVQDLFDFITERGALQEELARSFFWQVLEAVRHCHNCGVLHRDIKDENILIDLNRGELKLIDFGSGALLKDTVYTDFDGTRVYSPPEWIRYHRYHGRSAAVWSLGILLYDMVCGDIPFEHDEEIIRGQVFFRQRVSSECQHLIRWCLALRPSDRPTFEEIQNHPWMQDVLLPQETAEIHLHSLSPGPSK

Biological target: Full-length human PIM-1 (Homo sapiens, UniProt P11309)

Row | SMILES | IC50 [nM]
1 | O=C(C[C@@H]1CNC(=O)c2cc(-c3cccc(F)c3)cn21)N[C@H](CO)c1ccccc1 | 1840
2 | O=C(CC1CNC(=O)c2cc(-c3cccc(OC(F)(F)F)c3)cn21)NC1CCOCC1 (centres unmarked) | 360
3 | COC(=O)c1cccc(-c2cc3n(c2)C(CC(=O)NC2CCOCC2)CNC3=O)c1 (centres unmarked) | 3720
4 | O=C(CC1CNC(=O)c2cc(-c3cccc(C(F)(F)F)c3)cn21)NC1CCOCC1 (centres unmarked) | 840
5 | Cc1cccc(-c2cc3n(c2)C(CC(=O)NCc2ccccc2)CNC3=O)c1 (centres unmarked) | 400
6 | O=C(CC1CNC(=O)c2cc(-c3ccc(F)cc3)cn21)NCc1cccc(F)c1 (centres unmarked) | 120
7 | O=C(C[C@H]1CNC(=O)c2cc(-c3cccc(C(F)(F)F)c3)cn21)N[C@H](CO)Cc1ccccc1 | 560
8 | O=C(C[C@H]1CNC(=O)c2cc(-c3cccc(F)c3)cn21)N[C@H](CO)Cc1ccccc1 | 140
9 | O=C(CC1CNC(=O)c2cc(-c3ccc(F)cc3)cn21)NCc1ccccc1 (centres unmarked) | 280
10 | Cc1ccc(CNC(=O)CC2CNC(=O)c3cc(-c4cccc(F)c4)cn32)o1 (centres unmarked) | 520
11 | O=C(CC1CNC(=O)c2cc(-c3cccc(F)c3)cn21)NCc1ccco1 (centres unmarked) | 230
12 | Cc1cccc(-c2cc3n(c2)C(CC(=O)NCc2ccncc2)CNC3=O)c1 (centres unmarked) | 920
13 | CSc1cccc(-c2cc3n(c2)C(CC(=O)NCc2cccc(F)c2)CNC3=O)c1 (centres unmarked) | 490
14 | O=C(C[C@@H]1CNC(=O)c2cc(-c3cccc(F)c3)cn21)N[C@H](CO)C1CCCCC1 | 380
